This is one part of the list.
T1: LIN28A (human?, UniProt Q9H9Z2 1-209)
T1 sequence: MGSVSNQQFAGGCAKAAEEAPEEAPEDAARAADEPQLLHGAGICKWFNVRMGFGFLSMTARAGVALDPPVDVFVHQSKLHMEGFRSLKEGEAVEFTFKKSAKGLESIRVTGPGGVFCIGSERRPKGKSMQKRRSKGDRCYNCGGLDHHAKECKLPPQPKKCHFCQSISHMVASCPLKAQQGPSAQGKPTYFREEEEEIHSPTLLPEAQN

T2: CIRBP (Homo sapiens, UniProt Q14011 1-172)
T2 sequence: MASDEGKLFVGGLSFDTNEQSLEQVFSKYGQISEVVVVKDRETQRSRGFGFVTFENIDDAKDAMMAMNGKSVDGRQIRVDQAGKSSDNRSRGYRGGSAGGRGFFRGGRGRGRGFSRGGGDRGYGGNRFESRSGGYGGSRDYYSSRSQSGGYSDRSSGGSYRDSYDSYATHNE

T3: DHX36 (Homo sapiens, UniProt Q9H2U1 1-1008)
T3 sequence: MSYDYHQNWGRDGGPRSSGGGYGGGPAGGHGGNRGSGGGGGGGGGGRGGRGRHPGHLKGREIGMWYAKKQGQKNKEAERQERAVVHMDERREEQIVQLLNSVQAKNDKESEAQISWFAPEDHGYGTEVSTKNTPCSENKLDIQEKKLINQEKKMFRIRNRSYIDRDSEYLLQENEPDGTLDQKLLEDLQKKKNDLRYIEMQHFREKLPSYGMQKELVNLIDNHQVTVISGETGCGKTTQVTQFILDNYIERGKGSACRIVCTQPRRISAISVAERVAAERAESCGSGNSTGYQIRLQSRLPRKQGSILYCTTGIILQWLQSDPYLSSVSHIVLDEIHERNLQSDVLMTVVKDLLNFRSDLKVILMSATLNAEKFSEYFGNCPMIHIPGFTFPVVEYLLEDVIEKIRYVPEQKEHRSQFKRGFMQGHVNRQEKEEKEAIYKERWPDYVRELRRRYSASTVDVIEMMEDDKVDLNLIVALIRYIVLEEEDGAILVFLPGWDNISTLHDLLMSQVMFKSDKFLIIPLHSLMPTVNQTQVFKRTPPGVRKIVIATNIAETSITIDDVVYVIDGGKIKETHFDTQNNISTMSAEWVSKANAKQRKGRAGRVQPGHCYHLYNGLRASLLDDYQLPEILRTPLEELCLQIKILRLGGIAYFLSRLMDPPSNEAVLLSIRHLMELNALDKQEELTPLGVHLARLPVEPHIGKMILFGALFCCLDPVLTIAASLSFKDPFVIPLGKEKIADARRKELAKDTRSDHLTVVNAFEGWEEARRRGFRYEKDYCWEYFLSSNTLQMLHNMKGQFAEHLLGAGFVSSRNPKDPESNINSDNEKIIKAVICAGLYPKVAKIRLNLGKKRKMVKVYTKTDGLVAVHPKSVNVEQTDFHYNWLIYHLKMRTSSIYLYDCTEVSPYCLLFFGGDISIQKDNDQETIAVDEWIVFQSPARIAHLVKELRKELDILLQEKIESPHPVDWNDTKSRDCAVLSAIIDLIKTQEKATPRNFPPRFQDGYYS

B1: hsa-mir-4436b-2_4436b-1 (structured_RNA)
RNA: GGGAAGCGUACGAAGCACUCUCUGCUAGGGUGUACGAAGUUUCAGCCCUGCCCAAAUGGUGGAGCAGAUUCGAGGGGCAGGGCUGAAGCUUCGUGCAC
B2: hsa-mir-4701 (structured_RNA)
RNA: GGGAGAAGGCCGCAUAAAAUGUGUACUCGGUGUACGAAGUUUCAGCCCUUGUGAAUGUCGGGCAAUGGGCUGAAGCUUCGUGCAC
B3: hsa-mir-24-1 (structured_RNA)
RNA: GGGAACGACACGCCUCAAAUACCGUCGGGGUGUACGAAGUUUCAGCAUCAGUUCUCAUUUUACACACUGGCGCUGAAGCUUCGUGCAC
B4: hsa-mir-7515 (structured_RNA)
RNA: GGGACUGCGUGUGGGGCGUAAAUAUACAGGUGUACGAAGUUUCAGCUUUAUGCCUGUUAGCAUGAAAAAAGAGGCUGAGAAGCUGAAGCUUCGUGCAC
B5: hsa-mir-34a (structured_RNA)
RNA: GGGACGGAGGGCUGUUUAUUAAGCCAACGGUGUACGAAGUUUCAGCGUUGUUGUGAGCAAUAGUAAGGAAGCAAUGCUGAAGCUUCGUGCAC
B6: NEAT1_ParasoR_ID4 (structured_RNA)
RNA: GGGAACACUCAAGCGGGAUAUAGCACUUGGUGUACGAAGUUUCAGCUUGAUGGGUUGGUUCCACAUCUUUGCAAUUGUGACUUGUACUGCCAUCAAGCUGAAGCUUCGUGCAC
B7: hsa-mir-6747 (structured_RNA)
RNA: GGGAACGGACGUCCAUUUAAACACGCCGGGUGUACGAAGUUUCAGCAGAACAUUCGUUCACUUUCCUGCUGAAGCUUCGUGCAC
B8: hsa-mir-632 (structured_RNA)
RNA: GGGCCGGAUAGACCCGUCUAGAAUGGAAGGUGUACGAAGUUUCAGCGCGGGGAACGAGGCCGUCGGCCAUUUUGUGGCUGAAGCUUCGUGCAC
B9: hsa-mir-301a (structured_RNA)
RNA: GGGACCAUCGCAUCGUACGUAAAUCUGCGGUGUACGAAGUUUCAGCACUACUGUACUUUACAGCUAGCAGUGCUGAAGCUUCGUGCAC
B10: hsa-mir-210 (structured_RNA)
RNA: GGGACAAGGAGUAUCGGUUCCAAAAUCCGGUGUACGAAGUUUCAGCACACUGCGCUGCCCCAGACCCACUGUGCUGAAGCUUCGUGCAC
B11: hsa-mir-324 (structured_RNA)
RNA: GGGAAUUGAAUGGGGUACCUCGCAAGCAGGUGUACGAAGUUUCAGCCAUUGGUGUAAAGCUGGAGACCCACUGGCUGAAGCUUCGUGCAC
B12: hsa-mir-548h-5 (structured_RNA)
RNA: GGGACCUGUGUAGUGGCGAUGCCUUUUCGGUGUACGAAGUUUCAGCUGUCAUUACUUUUAACUGUAGCUGAAGCUUCGUGCAC

What follows are binders tested against U1A (Homo sapiens, UniProt P09012) (assay: FOREST: bead pull-down of RNA structure library v1, barcode microarray; U1A/LIN28A: 20 mM HEPES pH 7.5, 80 mM KCl, 20 mM NaCl, 10% glycerol, 2 mM DTT, 0.1 ug/uL BSA, 4 C; BG4/CIRBP/DHX36: 10 mM Tris-HCl pH 7.5, 100 mM KCl (or LiCl),; high values mean tight binding).
Binder B1 has a binding signal of 1.05 z-score.
Binder B2 has a binding signal of 1.05 z-score.
Work on B3 yielded a binding signal of 1.05 z-score.
With B4 the binding signal was 1.06 z-score.
B5 gave a binding signal of 1.06 z-score.
Work on B6 yielded a binding signal of 1.05 z-score.
In the case of B7, the binding signal is reported as 1.06 z-score.
Binder B8 has a binding signal of 2.46 z-score.
B9 showed a binding signal of 1.05 z-score.
B10 gave a binding signal of 2.48 z-score.
With B11 the binding signal was 1.06 z-score.
In the case of B12, the binding signal is reported as 1.05 z-score.

The binders below were run against T1, LIN28A in the same assay as above.
With B1 the binding signal was 0.995 z-score.
B2 gave a binding signal of 0.54 z-score.
B3 showed a binding signal of 1.1 z-score.
For B4, the binding signal was 0.768 z-score.
In the case of B5, the binding signal is reported as 1.94 z-score.
With B6 the binding signal was -0.787 z-score.
B7 gave a binding signal of -0.545 z-score.
B8 showed a binding signal of 0.371 z-score.
In the case of B9, the binding signal is reported as 0.214 z-score.
Binder B10 has a binding signal of 0.00358 z-score.
In the case of B11, the binding signal is reported as 1.28 z-score.
With B12 the binding signal was -0.579 z-score.

The binders below were run against T2, CIRBP in the same assay as above.
Binder B1 has a binding signal of 0.847 z-score.
For B2, the binding signal was 0.612 z-score.
B3 was tested, and the binding signal was -0.542 z-score.
Binder B4 has a binding signal of -1.54 z-score.
With B5 the binding signal was 0.596 z-score.
B6 was tested, and the binding signal was -0.802 z-score.
With B7 the binding signal was 0.0736 z-score.
With B8 the binding signal was -0.64 z-score.
B9 gave a binding signal of -0.179 z-score.
B10 showed a binding signal of 0.181 z-score.
B11 showed a binding signal of 0.106 z-score.
B12 was tested, and the binding signal was -0.176 z-score.

The binders below were run against T3, DHX36 in the same assay as above.
Work on B1 yielded a binding signal of 0.79 z-score.
Work on B2 yielded a binding signal of 0.309 z-score.
In the case of B3, the binding signal is reported as -0.604 z-score.
B4 was tested, and the binding signal was 0.125 z-score.
B5 showed a binding signal of 0.922 z-score.
Binder B6 has a binding signal of -0.072 z-score.
B7 was tested, and the binding signal was -0.723 z-score.
For B8, the binding signal was 1.01 z-score.
B9 gave a binding signal of 0.14 z-score.
In the case of B10, the binding signal is reported as 0.312 z-score.
Work on B11 yielded a binding signal of 1.85 z-score.
B12 was tested, and the binding signal was -0.951 z-score.

Reference: article PMC7723054
